For one assay, the target named is Histamine H3 receptor (Homo sapiens, UniProt Q9Y5N1).
The next assay concerns the target Hrh3 protein (Rattus norvegicus, UniProt Q5PPG3).

Amino acid sequences for entries named in this document (tags omitted). A change or cut given only in a name is not applied to a line headed by its entry.
UniProt Q9Y5N1: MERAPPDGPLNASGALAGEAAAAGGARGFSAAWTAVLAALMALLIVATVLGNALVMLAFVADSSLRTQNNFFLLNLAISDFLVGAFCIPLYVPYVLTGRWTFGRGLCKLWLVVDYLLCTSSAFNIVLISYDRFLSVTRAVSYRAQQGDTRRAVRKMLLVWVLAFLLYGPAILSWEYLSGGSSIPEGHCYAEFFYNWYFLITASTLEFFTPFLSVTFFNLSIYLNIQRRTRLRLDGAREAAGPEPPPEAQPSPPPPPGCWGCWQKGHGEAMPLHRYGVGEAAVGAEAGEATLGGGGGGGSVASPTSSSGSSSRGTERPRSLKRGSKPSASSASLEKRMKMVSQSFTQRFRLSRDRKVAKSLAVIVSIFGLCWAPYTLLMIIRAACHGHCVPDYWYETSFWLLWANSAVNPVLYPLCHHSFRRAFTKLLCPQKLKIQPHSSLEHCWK
UniProt Q5PPG3, whole entry: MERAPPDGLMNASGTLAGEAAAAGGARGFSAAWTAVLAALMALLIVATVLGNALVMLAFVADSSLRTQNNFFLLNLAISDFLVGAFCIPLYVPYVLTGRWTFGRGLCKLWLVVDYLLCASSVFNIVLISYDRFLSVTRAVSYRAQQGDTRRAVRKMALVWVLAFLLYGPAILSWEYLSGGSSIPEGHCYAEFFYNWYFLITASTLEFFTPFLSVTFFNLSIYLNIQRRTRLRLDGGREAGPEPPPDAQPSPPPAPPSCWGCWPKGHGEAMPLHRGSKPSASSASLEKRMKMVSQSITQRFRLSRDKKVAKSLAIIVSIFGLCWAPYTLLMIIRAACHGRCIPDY

Here are results for 2 molecules from BindingDB's records for doi:10.1124/jpet.102.047183 (Abbott Laboratories, 2003).

“And” between values parts separate entries of the source, which are not always exact repeats. Identical values can stand only once.

Usually Ki stands for a measure of affinity in units of concentration, obtained from inhibition or displacement. A high value points to a looser hold on the target.

On to `NC(=NCc1ccc(Cl)cc1)SCCCc1cnc[nH]1` [VUF 9153], for which the Ki on Histamine H3 receptor was 0.36 nM and 0.78 nM; at Hrh3 protein it was 0.18 nM and 0.35 nM.
As to `C[C@@H](NC(=O)c1ccco1)C(=O)N1CCN(CCCOc2ccc(C(=O)C3CC3)cc2)CC1`, the Ki on Histamine H3 receptor is 93.3 nM and 117 nM.
